Data published in ChEMBL document CHEMBL1149259, “Potent N-(1,3-thiazol-2-yl)pyridin-2-amine vascular endothelial growth factor receptor tyrosine kinase inhibitors with excellent pharmacokinetics and low affinity for the hERG ion channel” (J Med Chem, 2004).

Sequences of proteins named here, by UniProt entry; tags and fusion partners are left off. A change or cut given only in a name is not applied to a line headed by its entry.
UniProt Q12809: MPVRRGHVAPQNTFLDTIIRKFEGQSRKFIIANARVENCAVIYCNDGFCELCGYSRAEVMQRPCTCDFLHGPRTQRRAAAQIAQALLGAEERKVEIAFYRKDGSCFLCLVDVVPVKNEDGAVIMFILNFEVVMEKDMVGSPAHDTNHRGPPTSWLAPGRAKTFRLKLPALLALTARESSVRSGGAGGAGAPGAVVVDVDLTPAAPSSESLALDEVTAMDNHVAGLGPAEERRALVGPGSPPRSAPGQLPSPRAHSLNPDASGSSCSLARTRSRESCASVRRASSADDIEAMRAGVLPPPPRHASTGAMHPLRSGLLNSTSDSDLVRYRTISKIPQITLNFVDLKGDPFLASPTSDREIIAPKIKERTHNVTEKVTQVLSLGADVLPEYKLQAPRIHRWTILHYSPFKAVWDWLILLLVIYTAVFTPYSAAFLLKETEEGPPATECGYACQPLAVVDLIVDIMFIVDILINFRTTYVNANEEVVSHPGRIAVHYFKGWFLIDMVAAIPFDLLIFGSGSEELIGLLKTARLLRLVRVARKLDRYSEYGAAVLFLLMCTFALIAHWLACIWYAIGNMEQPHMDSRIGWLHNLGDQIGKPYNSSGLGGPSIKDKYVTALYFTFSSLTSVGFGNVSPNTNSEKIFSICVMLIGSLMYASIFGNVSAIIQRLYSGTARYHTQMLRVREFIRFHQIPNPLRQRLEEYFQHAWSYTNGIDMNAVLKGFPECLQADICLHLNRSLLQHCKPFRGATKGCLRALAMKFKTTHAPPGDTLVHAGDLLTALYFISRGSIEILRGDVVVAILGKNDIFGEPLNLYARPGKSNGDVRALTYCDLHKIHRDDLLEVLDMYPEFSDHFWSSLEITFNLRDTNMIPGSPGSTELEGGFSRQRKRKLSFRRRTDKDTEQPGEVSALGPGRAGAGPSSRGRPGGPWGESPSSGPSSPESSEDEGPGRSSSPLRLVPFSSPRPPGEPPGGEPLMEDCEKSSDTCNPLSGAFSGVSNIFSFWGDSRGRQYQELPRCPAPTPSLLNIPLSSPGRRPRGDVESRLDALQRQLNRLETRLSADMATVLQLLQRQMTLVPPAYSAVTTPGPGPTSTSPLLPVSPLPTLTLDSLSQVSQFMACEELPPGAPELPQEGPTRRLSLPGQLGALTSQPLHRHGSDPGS

Assays:
[1] = species: Homo sapiens; assay: Protein binding in human plasma; details: read-out: PPB (converted)
[2] = biological target: Voltage-gated inwardly rectifying potassium channel KCNH2 (Homo sapiens, UniProt Q12809); assay: Displacement of [35S][…] from human ERG expressed in HEK293 cells; assay type: cell-based; details: read-out: Inflection point

SMILES | fraction unbound [1] | IC50 [2] [µM]
CC(=O)N1CCN(Cc2ccnc(Nc3ncc(C#N)s3)c2)CC1 | 0.106 | 10.6
CNC(=O)N1CCN(Cc2ccnc(Nc3ncc(C#N)s3)c2)CC1 | 0.126 | –
